This is a sample that favours compounds with a hit; in the whole collection about 3.6% have one here.
PLK1 PBD block: blocks phosphopeptide binding to human PLK1 polo-box domain | P53350 | Plk1 PBD binding of FITC phosphopeptide, fluorescence polarization | Potency, µM, actives largely listed as inhibitors | hit rate 2.8% among 360,000; also: series mostly up to about 57 µM; nearly all actives have a fitted effect of over 65% in size
Rango dissoc inh: inhibitors of RanGTP-induced Rango-importin beta complex dissociation; Biochemical FRET Rango-importin beta, RanGTP-induced dissociation; Potency, µM (series often up to 46.1 µM); hit rate 0.071% among 340,000; O95149+P62826; calls by dose curve; also: nearly all actives have a fitted effect of over 45% in size
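Compounds preincubate 5 min with complex of recombinant Rango and importin beta in PBS with 1 mM DTT. Ran (0.6 uM) loaded with 2 mM GTP plus 0.2 uM RCC1 starts dissociation; FRET is recorded 45 min later.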
KAT2A inh: blocks human GCN5L2 histone acetyltransferase; Q92830; GCN5L2 HAT assay, ThioGlo1 CoA-SH fluorescence; Potency, µM (titrated, usually from 58.9 µM), most hits filed as inhibitors; hit rate 0.21% among 390,000; AID 504327
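GCN5L2 (20 nM) in 50mM HEPES pH 7.5, 0.1mM EDTA, 0.01% Tween-20 preincubated 15 min with compounds at room temperature. Reaction started with H3(1-25) 75uM, acetyl-CoA 70uM, ThioGlo1 50uM; CoA-thiol fluorescence (Ex340/Em540) read at 0 and 20 min.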
Rango complex inh: inhibitors of Rango-importin beta complex formation | Q14974 | Rango CFP/YFP FRET sensor + importin beta, 45 min | AID 540263 | Potency, µM (highest dose often 92.2 µM) | hit rate 0.031% among 340,000; calls by dose curve; also: nearly all actives have a fitted effect of over 15% in size
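FRET biosensor Rango (snurportin 1 IBB between N-terminal EYFP and C-terminal Cerulean), 50 nM in PBS/1 mM DTT/0.02% Tween-20/0.1% BSA, preincubated 5 min RT with compound; 0.125 microM importin beta added, 45 min RT, CFP/YFP FRET ratio read.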
VDR inhibitor: inhibitors of human vitamin D receptor. P11473. VDR-SRC2-3 peptide fluorescence polarization, 2 h. Potency, µM, usual class: inhibitors. hit rate 0.93% among 400,000. AID 504847
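Inhibition of the VDR/SRC2-3 peptide interaction is quantified by fluorescence polarization. Compounds (23 nl, pintool) incubate with the reagents for 2 hours at ambient room temperature.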
PI5P4K alpha inh: inhibitors of human PI5P4K alpha. P48426. PI5P4Kalpha enzyme, ADP-Glo luminescence, 60 min; active compounds read low. max response, %. hit rate 1.2% among 330,000. AID 652105; active = max response of -50% or lower; inconclusive = between -30% and -50%; inactive = -30% or higher; also: value at the top dose of about 77 µM
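Reactions run in 0.038 M HEPES pH 7.4, 0.28 mM EGTA, 0.1% CHAPS and 5% DMSO, with PI5P4Kalpha, substrate, compound and 5 microM ATP final, one hour at room temperature. Readout is ADP-Glo luminescence.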
Of the large screens only hits and unclear results are named; the others gave an inactive call. Unless noted, calls follow the shape of the dose curve; as a rule, active = well fitted curve in the direction sought with a large enough effect; inconclusive = small, poorly fitted or top-dose-only effect, or another doubt; inactive = no such curve, though single readings can be large; an effect the other way counts as inactive or inconclusive.

O=C(O)c1ccccc1NC(=S)NC(=O)c1sc2ccccc2c1Cl	PLK1 PBD block 11.9µM, VDR inhibitor inconclusive, PI5P4K alpha inh inconclusive
NC(N)=NS(=O)(=O)c1ccc(NC(=S)NC(=O)c2sc3ccccc3c2Cl)cc1	Rango dissoc inh 20.6µM, Rango complex inh inconclusive
CCOc1ccc(CNc2ccc(N3CCCC3)cc2)cc1	PLK1 PBD block inconclusive, VDR inhibitor 3.98µM (no result: PI5P4K alpha inh)
O=C(NNc1cc(Cl)ccc1Cl)C1CCC1	PLK1 PBD block 26.7µM, VDR inhibitor inconclusive
O=C(NNc1ccc(F)cc1F)C1CCC1	none
O=C(Nc1cc(Cl)ccc1Cl)N1CCCC1	PLK1 PBD block 8.44µM, VDR inhibitor inconclusive
COc1ccc(CN2CCCN(S(=O)(=O)c3ccc(Br)cc3)CC2)cc1	PLK1 PBD block 26.7µM
COc1ccc(S(=O)(=O)N2CCN(Cc3ccc(Cl)cc3)CC2)cc1	none (no result: PI5P4K alpha inh)
CCOc1ccc(C(c2c(O)cc(C)n(Cc3ccco3)c2=O)N2CCCCC2)cc1 (stereo not drawn)	none (no result: PLK1 PBD block, Rango dissoc inh, Rango complex inh, PI5P4K alpha inh)
Oc1c(Br)cc(Br)cc1/C=N/NC(=S)N[C@H]1CC2C=CC1C2 (stereo partly drawn)	PLK1 PBD block inconclusive, Rango dissoc inh inconclusive, Rango complex inh inconclusive, PI5P4K alpha inh -89.3
Cc1cc(NC(=O)c2ccccc2)ncc1NC(=O)c1cccs1	none
Cc1cc(NC(=O)c2ccccc2F)ncc1NC(=O)c1cccs1	PLK1 PBD block 8.44µM, Rango complex inh inconclusive, PI5P4K alpha inh inconclusive
N#C/C(=C\c1ccc[nH]1)C(=O)Nc1ccccc1Cl	Rango complex inh 16.4µM
COc1ccc(C=C(C(=O)c2ccccc2)C(=O)c2ccccc2)cc1	none (no result: Rango dissoc inh, KAT2A inh, Rango complex inh, VDR inhibitor)
N#C/C(=C\c1cccc(Cl)c1)C(=O)c1ccccc1	PLK1 PBD block 0.844µM, VDR inhibitor inconclusive
COc1cccc(C=C(C#N)C(=O)c2ccccc2)c1	PLK1 PBD block 2.12µM (no result: Rango dissoc inh, KAT2A inh, Rango complex inh, VDR inhibitor)
N#C/C(=C\c1ccc[nH]1)C(=O)c1ccccc1	Rango dissoc inh inconclusive, Rango complex inh inconclusive
Cc1ccc2c(c1)-c1c(cnn1CC(=O)N1CCN(c3cccc(C(F)(F)F)c3)CC1)CO2	none (no result: PLK1 PBD block, Rango dissoc inh, Rango complex inh, PI5P4K alpha inh)
Cc1ccc2[nH]c(=S)cc(C)c2c1	PLK1 PBD block 5.97µM
CCOCC(=O)Nc1ccc(-c2cn3cccnc3n2)cc1	KAT2A inh 35.5µM (no result: PI5P4K alpha inh)
CC(C)CC(=O)Nc1ccc(-c2cn3cccnc3n2)cc1	KAT2A inh inconclusive
CCOC(=O)c1sc(=S)n(-c2ccc(OC)cc2)c1N	none
COc1ccccc1-n1c(N)c(C(N)=O)sc1=S	PLK1 PBD block 18.9µM, KAT2A inh inconclusive (no result: PI5P4K alpha inh)
Nc1c(C(=O)Nc2ccc(F)cc2)sc(=S)n1-c1ccccc1F	PLK1 PBD block 4.74µM, Rango complex inh inconclusive, VDR inhibitor inconclusive
Cn1c(N)c(C(=O)Nc2ccc3ccccc3c2)sc1=S	PLK1 PBD block inconclusive (no result: PI5P4K alpha inh)
COc1ccc(C2CC(=O)c3cc(-c4nc(-c5cccc([N+](=O)[O-])c5)cs4)c(=O)n(-c4ccccc4N)c3C2)cc1 (stereo not drawn)	none (no result: PLK1 PBD block, Rango dissoc inh, Rango complex inh, PI5P4K alpha inh)
C=CCOc1c(Cl)cc(CNc2ccc(N(C)C)cc2)cc1OC	VDR inhibitor 2.24µM (no result: PI5P4K alpha inh)
CC(=O)C1=C(O)C(=O)N(c2ccccn2)C1c1ccccc1[N+](=O)[O-] (stereo not drawn)	PLK1 PBD block 3.36µM, VDR inhibitor inconclusive, PI5P4K alpha inh inconclusive
CC(=O)C1=C(O)C(=O)N(c2ccc(Br)cn2)C1c1ccccc1[N+](=O)[O-] (stereo not drawn)	PLK1 PBD block inconclusive
CC(=O)C1=C(O)C(=O)N(C)C1c1ccccc1[N+](=O)[O-] (stereo not drawn)	PLK1 PBD block 26.7µM, VDR inhibitor inconclusive
Cc1cccc(Cn2cc(C(=O)c3ccccc3)c(=O)c3cc4c(cc32)OCO4)c1	none (no result: PLK1 PBD block, Rango dissoc inh, Rango complex inh, PI5P4K alpha inh)
CCc1cc2c(=O)n(Cc3ccco3)c(SCC(=O)NCC3CCCO3)nc2s1 (stereo not drawn)	none
CCc1cc2c(=O)n(Cc3ccco3)c(SCc3c(C)noc3C)nc2s1	VDR inhibitor 79.4µM
CCCCCCCCCCCCCCCCn1cc[n+](Cc2ccccc2)c1C	KAT2A inh 8.91µM (no result: PLK1 PBD block, Rango dissoc inh, Rango complex inh, PI5P4K alpha inh)
CC(C)Cn1c(=S)[nH]c2cc(C(=O)O)ccc2c1=O	PI5P4K alpha inh -59.2
COc1ccc(N2CCN(CC(=O)NCc3ccc(Cl)cc3)CC2)cc1	PLK1 PBD block 15µM
